How the values were obtained:
glucose oxidase = glucose oxidase (Aspergillus niger, UniProt P13006); details: for Rates of glucose oxidase oxidation: pH 7 and 25° C., glucose/glucose oxidase system; for second order rate constant for the reaction between ferricinium ion and reduced glucose oxidase: 50 mM potassium phosphate buffer, pH 7.0, 50 mM glucose, substrate excess
[1] = dc cyclic voltammetry of ferrocene derivatives (redox potential); assay type: physicochemical; details: pH 7 and 25° C.

By UniProt entry, the sequences of proteins in these tests, tags left out. Where a name states a change or a piece, a line headed by the entry shows the natural chain unless it says otherwise.
UniProt P13006: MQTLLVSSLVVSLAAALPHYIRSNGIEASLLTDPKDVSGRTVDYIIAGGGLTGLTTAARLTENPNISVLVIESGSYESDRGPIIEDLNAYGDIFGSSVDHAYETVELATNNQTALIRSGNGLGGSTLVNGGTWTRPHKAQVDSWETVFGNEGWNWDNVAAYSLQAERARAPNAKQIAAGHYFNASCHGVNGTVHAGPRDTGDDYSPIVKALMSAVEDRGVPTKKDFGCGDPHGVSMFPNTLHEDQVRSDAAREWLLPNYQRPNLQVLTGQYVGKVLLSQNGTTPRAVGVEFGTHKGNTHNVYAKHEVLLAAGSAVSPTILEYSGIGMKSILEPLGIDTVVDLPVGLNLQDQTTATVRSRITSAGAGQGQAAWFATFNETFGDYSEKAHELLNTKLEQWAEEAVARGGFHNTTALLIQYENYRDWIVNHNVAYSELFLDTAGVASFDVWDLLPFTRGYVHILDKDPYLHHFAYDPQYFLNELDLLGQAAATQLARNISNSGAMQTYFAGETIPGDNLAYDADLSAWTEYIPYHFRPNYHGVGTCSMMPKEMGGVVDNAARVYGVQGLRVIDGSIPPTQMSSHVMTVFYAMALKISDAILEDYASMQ

1,1'-dimethylferrocene
Rates of glucose oxidase oxidation (glucose oxidase): 44 | Eo/mV vs SCE [1]: 100 mV

1,1'-ferrocene dicarboxylic acid
second order rate constant for the reaction between ferricinium ion and reduced glucose oxidase (glucose oxidase): 10^4 m^-1 s^-1 | Rates of glucose oxidase oxidation (glucose oxidase): 15 | Eo/mV vs SCE [1]: 385 mV

ferrocene
second order rate constant for the reaction between ferricinium ion and reduced glucose oxidase (glucose oxidase): 10^4 m^-1 s^-1 | Rates of glucose oxidase oxidation (glucose oxidase): 15 | Eo/mV vs SCE [1]: 165 mV
